In brackets after ≈: the same amount, converted by molar mass.
Legend:
[1] = tested on: Escherichia coli; experiment: Antibacterial activity against Escherichia coli ATCC 25922; type: functional, organism-based
[2] = tested on: Bacillus subtilis; experiment: Antibacterial activity against Bacillus subtilis ATCC 6633; type: functional, organism-based
[3] = tested on: RBCs; experiment: Hemolysis in sheep RBC; type: functional, Ovis aries, Erythrocyte
Outline: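 Fresh red blood cells were exposed to compound. HD50 is the concentration producing 50% hemolysis, in µg/mL. Mean of three independent experiments, each performed in parallel.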

[4] = tested on: RBCs; experiment: Hemolytic index, HD50 in sheep red blood cell/IC50 against Escherichia coli; type: functional, Erythrocyte
[5] = tested on: RBCs; experiment: Hemolytic index, HD50 in sheep red blood cell/IC50 against Bacillus subtilis; type: functional, Erythrocyte

Row | Structure (SMILES) | IC50 [1] | IC50 [2] | HD50 [3] | HI [4] | HI [5]
1 | CC(=O)N[C@@H](CCCN=C(N)N)C(=O)N[C@@H](Cc1c[nH]c2ccccc12)C(=O)N[C@@H](CCCN=C(N)N)C(=O)N[C@@H](Cc1c[nH]c2ccccc12)C(N)=O | 510 µg/mL (≈ 686 µM) | 142 µg/mL (≈ 191 µM) | 1850 µg/mL | 3.6 | 13
2 | CC(=O)N[C@@H](CCCN=C(N)N)C(=O)N[C@@H](CCCN=C(N)N)C(=O)N[C@@H](Cc1c[nH]c2ccccc12)C(=O)N[C@@H](Cc1c[nH]c2ccccc12)C(N)=O | 586 µg/mL (≈ 788 µM) | 131 µg/mL (≈ 176 µM) | 2280 µg/mL | 3.9 | 17.4
